Results on one molecule are retold here after patent publication EP0584223B1, “NOVEL IMMUNOSUPPRESSIVE COMPOUNDS” (VERTEX PHARMACEUTICALS INCORPORATED, priority 1991, dated 1992).

Amino acid sequences for entries named in this document (tags omitted).
UniProt P62942, whole entry: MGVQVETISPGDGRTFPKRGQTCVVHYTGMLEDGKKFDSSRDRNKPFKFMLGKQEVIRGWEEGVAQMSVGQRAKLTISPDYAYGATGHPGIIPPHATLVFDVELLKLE

The target in the test is FKBP (Homo sapiens, UniProt P62942). Briefly: Inhibition of FKBP PPIase (rotamase) activity, chymotrypsin-coupled assay. It counts as biochemical. As to conditions: apparent Ki. The text has this:
The inhibition of the PPIase (rotamase) enzyme activity of the FKBP (apparent "Ki" values) can also be measured according to the methods described by either Harding, M.W. et al., Nature 341:758-760 (1989) or Siekierka, J.J. et al., Nature 341:755-757 (1989). The cis-trans isomerization of the […] peptide bond in a model substrate, N-succinyl-Ala-Ala-Pro-Phe-p-nitroanilide, is monitored spectrophotometrically in a coupled assay with chymotrypsin, which releases 4-nitroanilide from the trans form of the substrate. Fischer, G. et al., Nature 337:476-478 (1989). The inhibitory effect of the addition of different concentrations of inhibitor on the extent of the reaction is determined, and analysis of the change in first order rate constant as a function of inhibitor concentration yields an estimate of the apparent Ki value.

As for `COc1cc(C(=O)C(=O)N2CCCC[C@H]2C(=O)OC(CCCc2ccccc2)CCc2cccnc2)cc(OC)c1OC` (mixture of isomers) [Compound 7, (R and S)-6-Phenyl-1-(3-pyridyl)-3-hexyl (S)-N-(3,4,5-trimethoxyphenylglyoxyl)pipecolate], the Ki stood at 3 nM.
